Results reported in ChEMBL document CHEMBL5537189 (J Med Chem, 2024).
pKd: −log10 of the molar value. Values after ≈ are worked out from the molar mass of the structure shown.

Tests used:
in vitro [1] = conditions: Sprague-Dawley, rat, liver microsomes
in vitro [2] = conditions: Sprague-Dawley, rat, liver microsomes; remark: listed apart in the source
physchem = conditions: water (aqueous)
[3] = target: T1, Retinoic acid receptor RXR-beta (Homo sapiens, UniProt P28702)
T1 sequence (P28702 whole entry): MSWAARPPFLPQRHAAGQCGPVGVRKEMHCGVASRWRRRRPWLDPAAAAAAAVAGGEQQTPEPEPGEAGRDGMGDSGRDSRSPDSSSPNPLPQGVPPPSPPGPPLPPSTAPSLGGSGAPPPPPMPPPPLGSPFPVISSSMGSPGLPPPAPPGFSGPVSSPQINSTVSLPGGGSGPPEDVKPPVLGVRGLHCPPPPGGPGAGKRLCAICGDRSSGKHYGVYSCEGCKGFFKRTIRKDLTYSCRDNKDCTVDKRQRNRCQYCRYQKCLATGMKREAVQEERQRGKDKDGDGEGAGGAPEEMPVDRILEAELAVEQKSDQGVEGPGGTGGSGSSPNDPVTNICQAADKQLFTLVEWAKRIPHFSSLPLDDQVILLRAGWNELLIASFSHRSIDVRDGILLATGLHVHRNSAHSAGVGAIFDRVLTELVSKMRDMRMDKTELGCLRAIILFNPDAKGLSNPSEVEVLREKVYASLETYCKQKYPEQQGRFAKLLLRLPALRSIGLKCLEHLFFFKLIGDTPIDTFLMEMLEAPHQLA

Compound | half-life at 10 µM (in vitro [1]) [min] | remaining at 1 h, 10 µM (in vitro [2]) [%] | solubility at 24 h (physchem) [µg/mL] | pKd [3]
CC1(C)CCN(c2cc(Cl)nc(OCCC(=O)O)n2)c2ccccc21 | > 120 | 79 | 84 (≈ 232 µM) | –
CC1CCc2ccccc2N1c1cc(Cl)nc(OCCC(=O)O)n1 (stereo not given) | – | – | 39 (≈ 112 µM) | 5.30
